Biological target: Androgen Receptor (AR) (Homo sapiens, UniProt P10275, T878A)
Test: LNCaP Androgen Receptor Down-regulation Cell Assay (immunofluorescence end point)
Format: cell-based
Details: read-out: Androgen Receptor Down-regulation Assay (a) IC50/μM; LNCaP prostate carcinoma cells, compound incubation 20-22 hours, 50% reduction of the AR signal

Amino acid sequences for entries named in this document (tags omitted).
UniProt P10275, whole entry T878A: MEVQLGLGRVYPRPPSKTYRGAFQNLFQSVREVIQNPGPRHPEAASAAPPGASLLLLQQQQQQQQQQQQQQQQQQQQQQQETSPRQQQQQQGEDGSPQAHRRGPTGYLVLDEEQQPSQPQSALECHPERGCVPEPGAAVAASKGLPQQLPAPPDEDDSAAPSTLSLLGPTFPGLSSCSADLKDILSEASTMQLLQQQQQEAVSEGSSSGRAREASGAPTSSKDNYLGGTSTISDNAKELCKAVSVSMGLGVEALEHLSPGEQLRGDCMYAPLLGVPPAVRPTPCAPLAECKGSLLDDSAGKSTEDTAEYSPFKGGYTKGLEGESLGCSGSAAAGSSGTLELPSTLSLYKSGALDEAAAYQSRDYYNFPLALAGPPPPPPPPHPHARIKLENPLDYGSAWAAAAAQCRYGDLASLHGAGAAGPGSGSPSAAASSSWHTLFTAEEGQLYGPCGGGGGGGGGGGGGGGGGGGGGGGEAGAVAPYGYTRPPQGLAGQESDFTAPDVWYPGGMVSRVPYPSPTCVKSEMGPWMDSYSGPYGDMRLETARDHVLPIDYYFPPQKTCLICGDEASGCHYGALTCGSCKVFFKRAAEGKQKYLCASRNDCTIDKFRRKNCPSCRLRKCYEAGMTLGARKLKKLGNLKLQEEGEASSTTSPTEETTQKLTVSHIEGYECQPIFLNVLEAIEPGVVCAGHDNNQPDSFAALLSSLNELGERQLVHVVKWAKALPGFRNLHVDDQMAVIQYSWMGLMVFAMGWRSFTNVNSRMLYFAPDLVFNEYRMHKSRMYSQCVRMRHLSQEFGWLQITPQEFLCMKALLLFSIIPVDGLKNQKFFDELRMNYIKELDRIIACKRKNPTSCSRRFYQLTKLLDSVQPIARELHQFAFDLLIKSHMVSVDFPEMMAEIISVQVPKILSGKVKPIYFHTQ

| SMILES | IC50 [µM] |
| --- | --- |
| Fc1cccc(CN2CCN(c3ccc4nnc(C(F)F)n4n3)CC2)c1 | 2.8 |
| FC(F)(F)c1nnc2ccc(N3CCC(c4cccc(OCc5ccon5)c4)CC3)nn12 | 0.58 |
| CN(C)CCn1cc(C2CCN(c3ccc4nnc(C(F)(F)F)n4n3)CC2)c2ccccc21 | 1.8 |
| C[C@@H]1CN(c2ccc3nnc(C(F)(F)F)n3n2)[C@@H](C)CN1Cc1ccc(F)cc1 | 11 |
| COc1cc(OC)nc(C2CCN(c3ccc4nnc(C(F)(F)F)n4n3)CC2)n1 | 3.2 |
| FC(F)(Cl)c1nnc2ccc(N3CC[C@@H](c4ccccc4)C3)nn12 | 1.5 |
| FC(F)(F)c1nnc2ccc(N3CCC(Oc4ccccn4)CC3)nn12 | 1.7 |
| FC(F)(F)c1nnc2ccc(N3CCC(COc4ncc(Br)cn4)CC3)nn12 | 2 |
| COCC(=O)Nc1cccc(C2CCN(c3ccc4nnc(C(F)(F)F)n4n3)CC2)c1 | 3.2 |
| OC1(c2ccccc2)CCN(c2ccc3nnc(C(F)(F)F)n3n2)CC1 | 1.2 |

The remaining compounds from weak to strong by IC50, led by results:

| IC50 [µM] | SMILES |
| --- | --- |
| 9.2 | C[C@@H]1CN(c2ccc3nnc(C(F)(F)F)n3n2)[C@@H](C)CN1Cc1cc(F)cc(F)c1 |
| 8.5 | FC(F)(Cl)c1nnc2ccc(N3CC[C@H](c4ccccc4)C3)nn12 |
| 4 | COc1ccncc1CN1CCN(c2ccc3nnc(C(F)(F)F)n3n2)CC1 |
| 3.7 | COCCn1cc(C2CCN(c3ccc4nnc(C(F)(F)F)n4n3)CC2)c2ccccc21 |
| 3.1 | N#Cc1ccc(CN[C@H]2[C@@H]3CN(c4ccc5nnc(C(F)(F)F)n5n4)C[C@@H]32)cc1 (relative stereo) |
| 1.5 | FC(F)(Cl)c1nnc2ccc(N3CCN(Cc4ccccc4)CC3)nn12 |
| 1.1 | CN1CCC(C(=O)Nc2cccc(C3CCN(c4ccc5nnc(C(F)(F)F)n5n4)CC3)c2)CC1 |
| 0.94 | O=C(Nc1cccc(C2CCN(c3ccc4nnc(C(F)(F)F)n4n3)CC2)c1)C1CCOCC1 |
| 0.49 | Cn1nccc1COc1cccc(C2CCN(c3ccc4nnc(C(F)(F)F)n4n3)CC2)c1 |

— US8003649B2 (AstraZeneca AB, priority 2007, dated 2011)
